# Source: US20100144743A1, “COMPOSITIONS AND METHODS FOR INHIBITION OF TYROSINE KINASES” (BOARD OF REGENTS, THE UNIVERSITY OF TEXAS SYSTEM, priority 2006, published 2010)
# Legend:
# [1] = tested on: HIF-1; assay: HIF-1 GFP/DsRFP expression (G/R) in C6#4 cells stimulated by CoCl2; type: cell-based
# [2] = tested on: C6#4 cells; assay: WST-1 cell viability (proliferation) test in C6#4 cells
smiles,measurement,setting,value
N[C@@H](Cc1ccc([N+]([O-])(CCCl)CCCl)cc1)C(=O)O,G/R:WST-1 Ratio Mean,"[1]; mean of 3 experiments, Table 3",2.1
same,G/R:WST-1 Ratio Mean,"[1]; mean, Table 4",2.133
same,EC50,"[1]; read-out: G/R (EC-50) 1 ex, experiment 1",27.9 µM
same,EC50,"[1]; read-out: G/R (EC-50) 2 ex, experiment 2",43.3 µM
same,EC50,"[1]; read-out: G/R (EC-50) 3 ex, experiment 3",64.4 µM
same,EC50,"[1]; read-out: G/R (EC-50), 24 h exposure, GFP normalized to RFP, Table 2",45.2 µM
same,EC50,"[1]; read-out: G/R (REC-50) Mean, mean, Table 4",45.2 µM
same,EC50,"[2]; read-out: WST-1 (EC-50) 1 ex, experiment 1",80.2 µM
same,EC50,"[2]; read-out: WST-1 (EC-50) 2 ex, experiment 2",83.5 µM
same,EC50,"[2]; read-out: WST-1 (EC-50) 3 ex, experiment 3",101 µM
same,EC50,"[2]; read-out: WST-1 (EC-50) Mean, mean, Table 4",88.2 µM
same,EC50,"[2]; read-out: WST-1 (EC-50), 24 h exposure, WST-1 4 h, Table 2",88.2 µM

# Where two headings read alike, the source gives them in different places.
